Screening results as filed in PubChem BioAssay.
An excerpt weighted towards active compounds, which were near 13% of everything screened.
G9a block: blocks human histone lysine methyltransferase G9a; Q96KQ7; G9a H3K9 monomethylation, AlphaScreen, 2 h; Potency, µM (top dose mostly 102 µM), for the others: at the top dose activity, negative = inhibition, hits mostly inhibitors; actives 8.8% (n = 350,000); note: potency is the fitted concentration of half-maximal effect; % is set by controls: 0 for no effect and ±100 for the full control effect; nearly all actives have a fitted effect of over 75% in size
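Compounds were preincubated with 20 nM G9a for 15 min, after which biotinylated H3K9 peptide (500 nM) and SAM (20 uM) started a 2 h room-temperature reaction. Monomethylated product was quantified by antibody-based AlphaScreen chemiluminescence.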
Sfp inh: inhibitors of Bacillus subtilis Sfp phosphopantetheinyl transferase | Q9F4F7 | Biochemical Sfp PPTase activity, qHTS | Potency, µM, inactives show max response, negative = inhibition, most hits filed as inhibitors | 310,000 tested, 3.5% active | AID 1490; active = well fitted inhibition curve with a large enough effect; inconclusive = small, poorly fitted or top-dose-only effect, or another doubt; inactive = no such curve, though single readings can be large or run the other way;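 note: the enzyme is Sfp with the accession as filed and its product quenches rhodamine fluorescence; potency is the fitted concentration of half-maximal effect; 0% = enzyme reaction without inhibitor and -100% = no enzyme wells; top concentration of the series not given in the record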
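Buffer: 50 mM Hepes-Na pH 7.6, 10 mM MgCl2, 0.01% Nonidet P-40, 0.01% BSA. Enzyme 15 nM, pre-exposed to compound 15 min; substrates then added and fluorescence change tracked over 30 min.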
LMNA splice mod: changes lamin A minigene splicing in HeLa cells. HeLa LMNA splicing GFP/RFP minigene ratio, 48 h. Potency, µM (doses to about 46.1 µM), for inactives: at the highest dose ratio change, negative = inhibition, most hits filed as inhibitors. actives 0.01% (n = 200,000). AID 1487; active = well fitted inhibition curve with a large enough effect in the signal ratio, with a control signal flat, not every such curve was filed as active; inconclusive = small, poorly fitted or top-dose-only effect, or effect the other way, or a change in a side signal; the % refers to the signal ratio; note: potency is the fitted concentration of half-maximal effect; % is set by controls: 0 for no effect and ±100 for the full control effect
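Read-out is the ratio of GFP to DsRed2 object intensity, acquired by 488 nm laser-scanning cytometry on HeLa lamin A-EGFP minigene reporter cells. Compound incubation 48 hrs at 37 °C in Opti-MEM with 2% FBS; DMSO 0.5% final.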
JMJD2E inh: JMJD2E (human) inhibition. B2RXH2. JMJD2E catalytic domain, FDH-coupled NADH fluorescence (FDH is formaldehyde dehydrogenase). Potency, µM (series often up to 57.1 µM), for inactives: top-dose activity change, negative = inhibition, actives largely listed as inhibitors. actives 1.6% (n = 230,000). AID 2147; active = well fitted inhibition curve with a large enough effect, not every such curve was filed as active; inconclusive = small, poorly fitted or top-dose-only effect, or another doubt; inactive = no such curve, though single readings can be large or run the other way;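 note: potency is the fitted concentration of half-maximal effect; 0% = wells with enzyme and -100% = buffer wells without enzyme; nearly all actives have a fitted effect of over 50% in size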
ALDH1A1 inh: blocks purified human ALDH1A1 activity; Potency, µM (top dose mostly 75.3 µM), for inactives: at the highest dose activity, negative = inhibition, usual class: inhibitors; P00352; actives 7.3% (n = 220,000); Purified ALDH1A1, NADH fluorescence, propionaldehyde substrate; AID 1030; active = well fitted inhibition curve with a large enough effect, not every such curve was filed as active; inconclusive = small, poorly fitted or top-dose-only effect, or another doubt; inactive = no such curve, though single readings can be large or run the other way;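 note: potency is the fitted concentration of half-maximal effect; plate controls were no enzyme wells and a reference inhibitor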
miR-21 reporter: miR-21 reporter, rising signal. 340,000 tested, under 10 active. Potency, µM (highest dose often 38.3 µM), for the others: at the highest dose reporter change, positive = more light. HeLa miR-21 FLuc reporter, luciferase, 48 h. AID 2288; active = well fitted rising curve with a large enough effect; inconclusive = small, poorly fitted or top-dose-only effect; inactive = no such curve, though single readings can be large or run the other way;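 further: % of control where 0% means no effect; miR-21 action dims this reporter so a rising signal means less miR-21 action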
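HeLa miR-21-FLuc reporter line, endogenous miR-21; 2000 cells/well in DMEM/10% FBS; compound titration up to ~40uM final, 48 h, 37 degree Celsius; luciferase detection reagent, 15 min lysis, CCD luminescence.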
An asterisk follows results filed as active; ? = inconclusive; nt = no result given; [ ] = another dose, or the depositor's remark. Unless noted, calls come from the whole dose curve; as a rule, active = well fitted curve in the direction sought with a large enough effect; inconclusive = small, poorly fitted or top-dose-only effect, or another doubt; inactive = no such curve, though single readings can be large; an effect the other way counts as inactive or inconclusive.

Each structure is followed by: LMNA splice mod | JMJD2E inh | Sfp inh | miR-21 reporter | G9a block | ALDH1A1 inh
Cc1ccc(OCC(=O)N2CC3(C)CC2CC(C)(C)C3)cc1 (stereo unspecified)
  -1% | 11% | 5% | 0% | -12%[59 µM] | 5%
Cc1ccc(OCC(O)CN2CC3(C)CC2CC(C)(C)C3)cc1 (stereo unspecified)
  -8% | ? | -26% | -4% | 20µM* | ?
CC1(C)CC2CC(C)(CN2CC(=O)C(C#N)c2ccccc2)C1 (stereo unspecified)
  1% | -6% | -1% | -4% | ? | ?
CC(CN1CCCC1)OC(=O)c1ccc(Br)cc1 (stereo unspecified)
  nt | nt | 0% | -1% | 1% | nt
Cc1ccc(-c2cc(C(F)(F)F)n3nc(C(=O)Nc4ccc(Cl)cc4Cl)cc3n2)cc1
  nt | nt | nt | 0% | -49%[59 µM] | nt
COc1ccc(OC)c(NC(=O)CCc2c[nH]c3ccccc23)c1
  nt | 6% | 9% | 3% | ? | -4%
COc1ccc(C2=CSC(/N=C/c3ccc(F)cc3)=NN2)cc1
  6% | -4% | 28µM* | -13% | 25µM* | 13%
COc1ccc(/C=N/N=C/c2ccc(OC)cc2)cc1
  nt | nt | 7% | -4% | 25% | nt
COC(=O)C(=Cc1cc(Br)c(OC)c(Br)c1)C(=O)OC
  nt | -5% | ? | nt | nt | 0%
S=C(NCCc1ccccc1)Nc1ccccn1
  7% | -30% | -9% | -48% | 1.4µM* | 3.2µM*
Cc1ccccc1NC(=S)NCCc1ccccc1
  ? | -1% | 8% | -9% | ? | ?
Cc1cccc(NC(=S)NCCc2ccccc2)n1
  ? | ? | 56µM* | 3% | -117% | ?
CC(C)(C)NC(=S)NCCc1ccccc1
  -10% | 3% | -13% | -31% | 45µM* | 7%
CCOc1cc(/C=C2\N=C(SCC)SC2=O)cc([N+](=O)[O-])c1OC(C)=O
  -3% | -8% | ? | 0% | 10µM* | 32µM*
CCOc1c(OC(C)=O)ccc(/C=C2\N=C(SCC)SC2=O)c1[N+](=O)[O-]
  4% | -2% | -68% | -5% | nt | ?
COc1ccc(/C=C2\N=C(SC)SC2=O)cc1OC
  -3% | -4% | 5% | 0% | 29%[12.7 µM] | 2%
CCOc1cc(/C=C2\N=C(SC)SC2=O)cc([N+](=O)[O-])c1OC(C)=O
  4% | -1% | ? | -3% | 14µM* | 28µM*
Cc1ccc(O)c(C(=O)/C=C/c2ccc3c(c2)OCCCO3)c1
  11% | -9% | -14% | -47% | 7.1µM* | ?
O=c1c(-c2cccc([N+](=O)[O-])c2)[n+]([O-])c2ccccc2n1O
  nt | 22µM* | 0% | 1% | ? | nt
O=c1c(-c2ccc(Cl)cc2)[n+]([O-])c2ccccc2n1O
  -10% | -12% | -19% | -13% | 11µM* | -11%

Shown as tab-separated lines: entries from further up.
Compound	LMNA splice mod	JMJD2E inh	Sfp inh	miR-21 reporter	G9a block	ALDH1A1 inh
Cc1ccccc1NC(=S)NCCc1ccccc1	?	-1%	8%	-9%	?	?
Cc1cccc(NC(=S)NCCc2ccccc2)n1	?	?	56µM*	3%	-117%	?
CC(C)(C)NC(=S)NCCc1ccccc1	-10%	3%	-13%	-31%	45µM*	7%
CCOc1cc(/C=C2\N=C(SCC)SC2=O)cc([N+](=O)[O-])c1OC(C)=O	-3%	-8%	?	0%	10µM*	32µM*
CCOc1c(OC(C)=O)ccc(/C=C2\N=C(SCC)SC2=O)c1[N+](=O)[O-]	4%	-2%	-68%	-5%	nt	?

Next part:
Each structure is followed by: LMNA splice mod | JMJD2E inh | Sfp inh | miR-21 reporter | G9a block | ALDH1A1 inh
Cc1ccc(CSc2nc3cccnc3n2Cc2ccc(C(=O)NC3CCCCC3)cc2)cc1
  9%[46 µM] | nt | nt | -17% | 4%[59 µM] | nt
NNC(=O)c1[nH]c2ccc(Br)cc2c1-c1ccccc1
  nt | ? | -11% | 26% | nt | 0.16µM*
Cc1ccc2[nH]c(C(=O)O)c(-c3ccccc3)c2c1
  -1% | ? | 1% | -3% | 6%[12.7 µM] | ?
NNC(=O)c1[nH]c2ccc(Cl)cc2c1-c1ccccc1
  nt | ? | -10% | 29% | -25% | 1.1µM*
Cc1ccc2[nH]c(C(=O)NN=C3CCCCC3)c(-c3ccccc3)c2c1
  nt | 8% | -9% | ? | 16%[12.7 µM] | 1.4µM*
CCOc1cccc2sc(NC(=O)CS(=O)(=O)c3ccc(C)cc3)nc12
  0%[46 µM] | nt | nt | 4% | -26%[59 µM] | nt
CCOc1ccccc1NCc1cc(=O)oc2cc(C)ccc12
  nt | nt | 5% | -6% | 45µM* | nt
COc1cccc(Cn2cnc3c(NS(=O)(=O)c4cc(Cl)ccc4Cl)c(C)c(C)cc32)c1
  ? | -5% | -6% | 11% | 8.9µM* | 1%
COc1cccc(Cn2cnc3c(NS(=O)(=O)c4ccc(Cl)cc4Cl)c(C)c(C)cc32)c1
  8% | -2% | -5% | -2% | nt | 3%
CCN(CC)c1ccc(NC(=O)C2CC(=O)N(Cc3ccccc3)C2)cc1 (stereo unspecified)
  ? | -10% | -22% | 2% | 11µM* | ?
Cc1ccc(NC(=O)COC(=O)C2CC(=O)N(Cc3ccccc3)C2)cc1S(=O)(=O)N(C)C (stereo unspecified)
  12%[46 µM] | 7% | 12% | -2% | 40µM* | ?
Cc1cccc(C)c1NC(=O)COC(=O)C1CC(=O)N(Cc2ccccc2)C1 (stereo unspecified)
  -1%[46 µM] | -7% | 32% | -6% | -36% | 6%
Cc1ccc(NC(=O)CN2CCC(Cc3ccccc3)CC2)cc1S(=O)(=O)N(C)C
  ? | ? | -30% | 10% | 8.9µM* | ?
Cc1ccc(NC(=O)CCN2CCC(Cc3ccccc3)CC2)cc1
  nt | nt | -3% | -6% | -8%[0.501 µM] | nt
COC(=O)c1cc(NC(=O)Cn2ncc3c2-c2ccccc2OC3)cc(C(=O)OC)c1
  nt | nt | nt | 7% | 10%[59 µM] | nt
O=C(c1ccc(F)cc1)N1CCN(C2CC3CCC2C3)CC1 (stereo unspecified)
  0% | -3% | 5% | 1% | 3% | ?
c1ccc(N2CCN(C3CC4CCC3C4)CC2)cc1 (stereo unspecified)
  nt | nt | -1% | -4% | 79µM* | nt
CC(C)(C)C1CCC(N2CCN(c3ccccc3)CC2)CC1 (stereo unspecified)
  nt | nt | 0% | 7% | nt | nt
O=C(c1ccccc1)N1CCN(C2CC3CCC2C3)CC1 (stereo unspecified)
  1% | ? | -21% | -5% | 16µM* | -6%
O=C(c1ccccc1)N1CCN(C(=O)C23CC4CC(CC(C4)C2)C3)CC1
  -15% | ? | 11% | -2% | -11% | 25µM*
COC(=O)c1ccc(Cl)cc1NC(=O)NCCc1c(C)nn(C)c1C
  4%[46 µM] | nt | nt | -10% | 6%[59 µM] | nt
[N-]=[N+]=Nc1nc2c(N)ncnc2n1C1OC(CO)C(O)C1O (stereo unspecified)
  ? | -8% | ? | nt | nt | 3%
Nc1[nH]n2c(=O)cc(-c3ccccc3)nc2c1N=Nc1ccccc1
  -15% | 3% | 12% | -4% | ? | 2%
Nc1[nH]n2c(=O)cc(-c3ccccc3)nc2c1N=Nc1ccc(S(N)(=O)=O)cc1
  3%[46 µM] | -17% | 3% | -1% | 35µM* | 4%
C1CCCCCC(=NNc2nn[nH]n2)CCCCC1
  nt | 17% | 40µM* | 0% | 3.2µM* | nt
COc1cccc([C@@H]2Oc3ccc(Br)cc3C(=O)[C@H]2OC(=O)Nc2ccc(C)c(Br)c2)c1
  nt | 5% | 6% | nt | nt | 12%
